# According to PubChem BioAssay AID2366 (The Scripps Research Institute Molecular Screening Center, 2010):
# Only a part is listed here, and it is no random draw. Activity calls are given as the source filed them.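 Rule for the calls: active = compounds picked for the later follow-up tests because of their potency and selectivity; inactive = compounds skipped in follow-up as weaker or less selective.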
# Test: PME-1 inhibitor potency by in-gel ABPP, dose response, selectivity assay for PME-1 inhibitor project, cell lysate, mouse brain cytosol, FP-rhodamine (AID 2366)
# Conditions: gel-based ABPP
structure (smiles),measurement,value
N#C/C(=C\c1cccn1S(=O)(=O)c1ccccc1)S(=O)(=O)c1ccc(F)cc1,IC50,inactive: > 50 µM
